# Data: patent publication US12195437B2, “Lipophenolic flavonoid derivatives useful to reduce carbonyl and oxidative stresses (COS)” (Centre National de la Recherche Scientifique (CNRS), priority 2018, dated 2025)
# System: ARPE-19 cells
# Experiment: Cytotoxicity of lipophenols on ARPE-19 cells (MTT)
# Type: cell-based
# Conditions: 24 h, concentrations up to 160 μM
# Experimental: Cell viability was determined by MTT colorimetric assay. Cells were incubated for 2 h with MTT reagent (0.5 mg/mL). During this incubation time, dehydrogenases of living cells reduced MTT to insoluble purple formazan, which was then dissolved in DMSO. The absorbance at 570 nm and 655 nm of individual wells was measured using a microplate reader (BioRad 550). The percentage of viable cells was calculated as [(OD570 sample−OD655 sample)/(OD570 control−OD655 control)]×100%.
# ARPE-19 cells were plated into 96-well plates (4×10^4 cells/well) and cultured for 24 h to reach confluence before lipophenol treatment. […] Control cells were incubated with DMSO (0.2%). The viability of the cells was determined using a MTT colorimetric assay. All samples are expressed as percentage of viability compared to non-treated control cells (normalized at 100% survival).
# Results on the measurement of lipophenol toxicity will be discussed in % cell survival at a given lipophenol concentration compared to untreated cells. […] Any concentration of lipophenol resulting in cell survival of less than 5% (zero survival) will be considered a highly toxic concentration.
substance,measurement,value
(+)-catechin [reference compound],toxicity (in words),no toxicity
